Experimental data as given in patent US10617690B2 (priority 2015, dated 2020).

Target: T1, JAK3 (Homo sapiens, UniProt P52333)
T1 construct: purchased Life technology
T1 sequence (P52333 1-1124): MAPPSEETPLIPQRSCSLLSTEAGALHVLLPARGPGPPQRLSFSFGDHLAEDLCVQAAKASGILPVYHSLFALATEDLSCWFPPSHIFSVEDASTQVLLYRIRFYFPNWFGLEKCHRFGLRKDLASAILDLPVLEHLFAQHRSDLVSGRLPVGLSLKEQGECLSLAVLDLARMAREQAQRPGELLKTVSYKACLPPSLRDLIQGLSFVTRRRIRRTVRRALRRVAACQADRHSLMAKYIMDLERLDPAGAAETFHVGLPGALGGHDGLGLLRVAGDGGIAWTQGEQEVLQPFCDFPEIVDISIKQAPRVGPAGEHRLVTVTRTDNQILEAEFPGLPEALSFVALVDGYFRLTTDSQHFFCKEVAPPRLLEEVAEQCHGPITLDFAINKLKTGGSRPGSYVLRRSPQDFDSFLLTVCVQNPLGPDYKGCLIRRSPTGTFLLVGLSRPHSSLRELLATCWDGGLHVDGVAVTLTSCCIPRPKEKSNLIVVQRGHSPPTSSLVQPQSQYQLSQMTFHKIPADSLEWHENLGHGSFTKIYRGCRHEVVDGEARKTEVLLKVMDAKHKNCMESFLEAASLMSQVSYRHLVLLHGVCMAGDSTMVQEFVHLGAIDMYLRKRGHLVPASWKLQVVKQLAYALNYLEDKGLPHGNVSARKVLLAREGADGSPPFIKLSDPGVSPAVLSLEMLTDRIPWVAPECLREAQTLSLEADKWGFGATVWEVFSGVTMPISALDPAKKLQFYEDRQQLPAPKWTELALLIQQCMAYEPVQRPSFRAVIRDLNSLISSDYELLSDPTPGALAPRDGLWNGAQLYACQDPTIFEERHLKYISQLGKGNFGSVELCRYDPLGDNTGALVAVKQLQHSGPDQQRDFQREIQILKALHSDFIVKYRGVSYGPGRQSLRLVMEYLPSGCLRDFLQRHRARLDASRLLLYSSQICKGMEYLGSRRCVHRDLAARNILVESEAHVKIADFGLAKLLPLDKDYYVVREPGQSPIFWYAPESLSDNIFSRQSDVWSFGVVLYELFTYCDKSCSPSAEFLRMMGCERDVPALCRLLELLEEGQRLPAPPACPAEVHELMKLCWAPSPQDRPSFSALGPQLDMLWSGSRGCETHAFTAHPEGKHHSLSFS
Assay: In vitro activity test of JAK3 kinase (LANCE Ultra TR-FRET);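 further: recombinant human JAK3 phosphorylating ULight-JAK-1(Tyr1023) peptide at 4 µM ATP, with 1% DMSO, detected by Eu-anti-phosphotyrosine TR-FRET on Envision and converted to percent inhibition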
Type: biochemical
Conditions: 4 uM ATP, 90 min

Substance: N-(cyanomethyl)-1-(methyl(1H-pyrrole[2,3-b]pyridyl-4-)amino)piperidyl-3-formamide [WX14]
- IC50: 100 to 1000 nM
